{"sequences": {"note": "Chains of the proteins cited; added tags and fusions are not shown.", "UniProt O75376, whole entry": "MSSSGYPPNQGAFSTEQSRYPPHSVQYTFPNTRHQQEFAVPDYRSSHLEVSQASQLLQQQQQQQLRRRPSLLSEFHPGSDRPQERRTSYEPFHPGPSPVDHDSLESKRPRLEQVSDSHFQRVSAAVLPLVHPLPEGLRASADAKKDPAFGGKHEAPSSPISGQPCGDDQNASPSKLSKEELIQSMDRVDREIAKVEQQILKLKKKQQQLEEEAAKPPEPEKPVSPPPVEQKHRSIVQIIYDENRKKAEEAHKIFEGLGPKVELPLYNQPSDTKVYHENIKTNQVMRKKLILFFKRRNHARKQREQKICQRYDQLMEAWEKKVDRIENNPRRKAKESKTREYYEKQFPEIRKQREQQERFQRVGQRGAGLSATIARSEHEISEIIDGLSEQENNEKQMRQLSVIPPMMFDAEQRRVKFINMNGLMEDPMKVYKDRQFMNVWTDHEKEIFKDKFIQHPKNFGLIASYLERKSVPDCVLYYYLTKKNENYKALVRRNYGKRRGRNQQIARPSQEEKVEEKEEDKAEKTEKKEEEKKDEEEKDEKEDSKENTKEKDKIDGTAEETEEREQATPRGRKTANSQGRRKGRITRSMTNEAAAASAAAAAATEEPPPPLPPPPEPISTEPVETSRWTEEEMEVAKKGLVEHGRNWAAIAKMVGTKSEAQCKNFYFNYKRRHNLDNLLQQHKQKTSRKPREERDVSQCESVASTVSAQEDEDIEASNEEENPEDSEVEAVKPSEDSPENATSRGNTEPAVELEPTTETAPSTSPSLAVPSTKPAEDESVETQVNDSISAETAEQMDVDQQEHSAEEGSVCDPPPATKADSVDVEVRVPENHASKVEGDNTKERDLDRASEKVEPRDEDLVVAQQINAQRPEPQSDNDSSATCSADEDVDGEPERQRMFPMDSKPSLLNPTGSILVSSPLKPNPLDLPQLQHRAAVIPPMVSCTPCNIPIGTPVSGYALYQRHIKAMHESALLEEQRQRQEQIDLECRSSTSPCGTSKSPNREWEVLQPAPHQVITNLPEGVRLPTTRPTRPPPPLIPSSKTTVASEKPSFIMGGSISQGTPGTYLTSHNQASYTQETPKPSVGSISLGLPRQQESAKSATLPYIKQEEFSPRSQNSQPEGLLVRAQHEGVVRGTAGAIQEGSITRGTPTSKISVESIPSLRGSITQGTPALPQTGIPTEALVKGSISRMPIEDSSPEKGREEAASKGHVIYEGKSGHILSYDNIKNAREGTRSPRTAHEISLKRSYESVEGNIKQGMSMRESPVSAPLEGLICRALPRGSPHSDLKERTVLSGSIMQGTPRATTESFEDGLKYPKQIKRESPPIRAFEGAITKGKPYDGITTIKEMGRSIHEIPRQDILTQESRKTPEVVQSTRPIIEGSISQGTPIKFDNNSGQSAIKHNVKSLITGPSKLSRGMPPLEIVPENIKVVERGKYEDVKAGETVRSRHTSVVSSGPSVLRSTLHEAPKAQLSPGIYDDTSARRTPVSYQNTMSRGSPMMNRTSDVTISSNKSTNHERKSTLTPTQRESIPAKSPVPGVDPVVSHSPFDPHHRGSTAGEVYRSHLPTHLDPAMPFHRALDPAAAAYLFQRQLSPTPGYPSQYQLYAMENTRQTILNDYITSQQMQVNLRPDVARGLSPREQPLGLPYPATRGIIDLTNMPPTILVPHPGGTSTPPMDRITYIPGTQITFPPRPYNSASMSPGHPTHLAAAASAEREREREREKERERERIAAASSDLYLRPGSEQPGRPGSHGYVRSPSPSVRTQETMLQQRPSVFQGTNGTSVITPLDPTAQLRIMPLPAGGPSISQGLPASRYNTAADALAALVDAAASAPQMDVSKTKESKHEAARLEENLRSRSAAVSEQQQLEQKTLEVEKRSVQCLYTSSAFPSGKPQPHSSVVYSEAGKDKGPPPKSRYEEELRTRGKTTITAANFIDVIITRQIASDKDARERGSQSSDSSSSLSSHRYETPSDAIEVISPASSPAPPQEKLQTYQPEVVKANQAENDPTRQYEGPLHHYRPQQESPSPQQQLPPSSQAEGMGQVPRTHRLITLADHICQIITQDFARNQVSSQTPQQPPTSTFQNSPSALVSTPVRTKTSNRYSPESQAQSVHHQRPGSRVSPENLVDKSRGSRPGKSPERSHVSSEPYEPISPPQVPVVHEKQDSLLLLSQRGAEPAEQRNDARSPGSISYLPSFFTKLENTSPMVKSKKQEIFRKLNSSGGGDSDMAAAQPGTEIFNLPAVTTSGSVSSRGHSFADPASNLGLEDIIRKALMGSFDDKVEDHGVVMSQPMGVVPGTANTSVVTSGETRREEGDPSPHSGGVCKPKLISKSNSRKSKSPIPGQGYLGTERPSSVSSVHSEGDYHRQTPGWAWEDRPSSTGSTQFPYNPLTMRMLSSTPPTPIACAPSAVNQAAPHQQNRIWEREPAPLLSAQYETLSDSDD"}, "source": "ChEMBL document CHEMBL5579883", "about": "“Discovery of Novel Neo-Clerodane Derivatives as Potent Dual-Functional Antiosteoporosis Agents through Targeting Peroxisome Proliferator-Activated Receptor-γ” (J Med Chem, 2024)", "key": {"[1]": {"biological_target": "Nuclear receptor corepressor 1 (Homo sapiens) (UniProt O75376)", "assay": "Effect on NCoR recruitment (unknown origin) at 10 uM incubated for 24 hrs by TR-FRET assay"}, "[2]": {"biological_target": "T1, Peroxisome proliferator-activated receptor gamma coactivator 1-alpha (Homo sapiens) (UniProt Q9UBK2)", "T1 sequence (whole entry)": "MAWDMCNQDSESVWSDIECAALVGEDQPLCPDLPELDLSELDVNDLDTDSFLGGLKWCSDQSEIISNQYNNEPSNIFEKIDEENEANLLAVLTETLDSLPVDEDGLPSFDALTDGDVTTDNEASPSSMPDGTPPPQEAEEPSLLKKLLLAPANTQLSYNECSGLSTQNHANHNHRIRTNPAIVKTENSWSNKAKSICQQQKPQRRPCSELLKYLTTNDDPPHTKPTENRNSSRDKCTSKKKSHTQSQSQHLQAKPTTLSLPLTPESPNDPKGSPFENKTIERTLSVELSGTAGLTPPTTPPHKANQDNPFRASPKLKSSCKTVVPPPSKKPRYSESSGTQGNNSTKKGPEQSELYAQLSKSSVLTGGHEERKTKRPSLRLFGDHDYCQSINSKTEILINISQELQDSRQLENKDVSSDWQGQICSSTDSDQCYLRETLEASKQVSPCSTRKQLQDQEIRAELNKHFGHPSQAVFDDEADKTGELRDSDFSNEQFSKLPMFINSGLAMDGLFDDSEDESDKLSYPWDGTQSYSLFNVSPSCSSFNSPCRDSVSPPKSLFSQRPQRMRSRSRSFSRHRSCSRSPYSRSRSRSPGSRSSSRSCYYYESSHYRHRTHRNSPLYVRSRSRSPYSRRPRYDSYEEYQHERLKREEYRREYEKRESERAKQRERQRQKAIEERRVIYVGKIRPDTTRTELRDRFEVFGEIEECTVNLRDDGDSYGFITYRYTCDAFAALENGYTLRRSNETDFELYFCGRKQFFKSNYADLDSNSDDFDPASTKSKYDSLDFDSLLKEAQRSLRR", "assay": "Effect on PGC-1 alpha recruitment (unknown origin) incubated for 24 hrs at 10 uM by TR-FRET assay"}}, "note": "Calls of active or inactive are those of the source. The calls are words filed in the database; no cut-off is given here.", "data": [{"smiles": "C[C@@H]1C[C@H](O)[C@@]2(COC(=O)c3ccc(C(F)(F)F)cc3)C(=O)CCC[C@@H]2[C@@]1(C)CCC1=CC(=O)OC1", "values": [{"measurement": "Activity", "setting": "[1]", "value": "inactive"}, {"measurement": "Activity", "setting": "[2]", "value": "inactive"}]}]}
